Experimental findings from patent publication US20190388411A1, “NSAID ADMINISTRATION AND RELATED COMPOSITIONS, METHODS AND SYSTEMS” (Alfasigma S.p.A., priority 2013, published 2019) are described below.

This series in a line: Mortality in indomethacin- and diclofenac-induced enteropathy in rats (Example 17). As to conditions: 14 days, indomethacin […] BID, diclofenac 4 mg/kg BID, omeprazole 0.7 mg/kg/day, gastroresistant rifaximin 50 mg/kg BID, as named in the label, listed as indomethacin.

Regarding `COc1ccc2c(c1)c(CC(=O)O)c(C)n2C(=O)c1ccc(Cl)cc1` [Indomethacin, indomethacin], the “Mortality (%)” value turned out to be 13.3%.
